Laboratory results reported in ChEMBL document CHEMBL4382291, “Aminopyrazole Carboxamide Bruton's Tyrosine Kinase Inhibitors. Irreversible to Reversible Covalent Reactive Group Tuning” (ACS Med Chem Lett, 2019).

The chains behind the UniProt entries cited, without tags or fusion partners.
UniProt P00533, whole entry: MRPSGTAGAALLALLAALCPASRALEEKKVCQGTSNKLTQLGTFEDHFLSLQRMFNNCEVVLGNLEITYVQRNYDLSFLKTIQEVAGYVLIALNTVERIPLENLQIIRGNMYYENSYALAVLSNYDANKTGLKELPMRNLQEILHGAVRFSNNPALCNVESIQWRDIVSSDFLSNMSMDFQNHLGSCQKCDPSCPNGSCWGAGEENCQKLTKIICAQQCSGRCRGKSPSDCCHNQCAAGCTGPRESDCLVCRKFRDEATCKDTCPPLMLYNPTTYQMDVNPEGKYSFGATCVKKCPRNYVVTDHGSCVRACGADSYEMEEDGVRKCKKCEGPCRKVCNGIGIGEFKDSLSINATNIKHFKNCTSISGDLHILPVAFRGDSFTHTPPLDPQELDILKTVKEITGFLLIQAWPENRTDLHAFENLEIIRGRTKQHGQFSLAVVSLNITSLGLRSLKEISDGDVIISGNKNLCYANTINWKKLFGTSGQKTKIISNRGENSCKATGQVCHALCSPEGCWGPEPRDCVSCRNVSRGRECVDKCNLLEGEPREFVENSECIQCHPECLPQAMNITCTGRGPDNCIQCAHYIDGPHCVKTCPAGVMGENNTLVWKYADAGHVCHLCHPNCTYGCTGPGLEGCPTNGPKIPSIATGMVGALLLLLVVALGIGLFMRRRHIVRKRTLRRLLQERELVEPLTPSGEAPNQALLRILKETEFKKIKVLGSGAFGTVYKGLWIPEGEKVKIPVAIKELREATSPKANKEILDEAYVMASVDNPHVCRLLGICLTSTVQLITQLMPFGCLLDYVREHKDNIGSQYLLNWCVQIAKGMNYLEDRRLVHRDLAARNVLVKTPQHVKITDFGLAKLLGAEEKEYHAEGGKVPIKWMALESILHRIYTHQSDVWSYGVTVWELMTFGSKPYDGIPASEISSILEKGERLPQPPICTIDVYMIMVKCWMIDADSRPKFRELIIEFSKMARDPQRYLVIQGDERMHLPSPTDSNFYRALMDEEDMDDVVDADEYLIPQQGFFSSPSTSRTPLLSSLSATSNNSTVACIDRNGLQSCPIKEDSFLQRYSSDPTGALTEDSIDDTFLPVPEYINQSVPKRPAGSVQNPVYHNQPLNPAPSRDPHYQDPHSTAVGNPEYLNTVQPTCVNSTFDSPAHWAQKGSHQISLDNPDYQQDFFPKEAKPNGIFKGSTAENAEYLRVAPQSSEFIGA

Molecular target: Epidermal growth factor receptor (Homo sapiens, UniProt P00533)

Q: With `NC(=O)c1c(-c2ccc(Oc3ccc(F)cc3F)cc2)nn([C@@H]2CCCN(C(=O)/C=C/C(F)F)C2)c1N` as the compound, how does the IC50 read?
A: 274 nM
